We go through one molecule from patent publication US9884839B2, “Inhibitors of 17Beta-hydroxysteroid dehydrogenases type 1 and type 2” (ElexoPharm GmbH, priority 2014, dated 2018).

Each structure is given as a SMILES string.

For the test, the target named is T1, human 17β-HSD1 (Homo sapiens, UniProt P14061).
T1 construct: For the partial purification of 17β-HSD1, the cytosolic fraction was precipitated with ammonium sulfate; from tissue; host or cells: human placenta, cytosolic fraction, ammonium sulfate precipitate
T1 sequence (P14061 1-328): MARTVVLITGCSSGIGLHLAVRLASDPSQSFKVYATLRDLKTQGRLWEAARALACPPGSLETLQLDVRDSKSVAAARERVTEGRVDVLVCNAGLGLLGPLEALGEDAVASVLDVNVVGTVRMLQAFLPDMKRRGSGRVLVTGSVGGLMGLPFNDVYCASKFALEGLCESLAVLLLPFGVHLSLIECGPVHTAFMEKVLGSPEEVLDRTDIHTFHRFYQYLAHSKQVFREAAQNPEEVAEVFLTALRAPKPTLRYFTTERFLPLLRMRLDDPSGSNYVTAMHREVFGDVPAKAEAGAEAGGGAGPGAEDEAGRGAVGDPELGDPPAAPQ
Put plainly: Inhibition of human 17β-HSD1 (conversion of [3H]-E1 to E2, HPLC radioflow detection). It counts as biochemical. To be noted: human placental cytosolic enzyme, E1 500 nM, NADH; Tables 1, 4-11; read-out: IC50 [nM] h17β-HSD1.

For `Nc1cccc(-c2ccc(C(=O)c3c(F)ccc(O)c3F)s2)c1` [Compound 1, [5-(3-Aminophenyl)thiophen-2-yl](2,6-difluoro-3-hydroxyphenyl)methanone], the IC50 was determined as 10 nM.

In general, IC50 refers to the concentration that inhibits the measured activity by half.
